Experimental data taken from article PMC12669049, “Energy-transfer photoproximity labelling in live cells using an organic cofactor” (Nature Chemistry, 2025).

Experiment: Stationary and time-resolved absorption and emission spectroscopy (photophysics)
Type: physicochemical
Source text: Details of the stationary and time-resolved absorption and emission spectroscopy procedures used for the mechanistic studies are given in Supplementary Section 3.3.

Substance | λmax | λmax (Supplementary Fig. 4)
Riboflavin tetraacetate [RTA] | 450 nm | –
MeO-thioxanthone [2b] | – | 409 nm

Read-outs that look alike come from different tables or passages of the source.
